Where two headings read alike, the source gives them in different places.

Protein sequences, listed by entry. Tags and fused reporters are not part of them. Lines headed by an entry give the natural chain unless they say otherwise; changes in a name come on top. Chains listed by the source or under a name are the forms on record and can include a tag or linker. Residues count along the entry.
UniProt P00533, 25-1210 limits assumed: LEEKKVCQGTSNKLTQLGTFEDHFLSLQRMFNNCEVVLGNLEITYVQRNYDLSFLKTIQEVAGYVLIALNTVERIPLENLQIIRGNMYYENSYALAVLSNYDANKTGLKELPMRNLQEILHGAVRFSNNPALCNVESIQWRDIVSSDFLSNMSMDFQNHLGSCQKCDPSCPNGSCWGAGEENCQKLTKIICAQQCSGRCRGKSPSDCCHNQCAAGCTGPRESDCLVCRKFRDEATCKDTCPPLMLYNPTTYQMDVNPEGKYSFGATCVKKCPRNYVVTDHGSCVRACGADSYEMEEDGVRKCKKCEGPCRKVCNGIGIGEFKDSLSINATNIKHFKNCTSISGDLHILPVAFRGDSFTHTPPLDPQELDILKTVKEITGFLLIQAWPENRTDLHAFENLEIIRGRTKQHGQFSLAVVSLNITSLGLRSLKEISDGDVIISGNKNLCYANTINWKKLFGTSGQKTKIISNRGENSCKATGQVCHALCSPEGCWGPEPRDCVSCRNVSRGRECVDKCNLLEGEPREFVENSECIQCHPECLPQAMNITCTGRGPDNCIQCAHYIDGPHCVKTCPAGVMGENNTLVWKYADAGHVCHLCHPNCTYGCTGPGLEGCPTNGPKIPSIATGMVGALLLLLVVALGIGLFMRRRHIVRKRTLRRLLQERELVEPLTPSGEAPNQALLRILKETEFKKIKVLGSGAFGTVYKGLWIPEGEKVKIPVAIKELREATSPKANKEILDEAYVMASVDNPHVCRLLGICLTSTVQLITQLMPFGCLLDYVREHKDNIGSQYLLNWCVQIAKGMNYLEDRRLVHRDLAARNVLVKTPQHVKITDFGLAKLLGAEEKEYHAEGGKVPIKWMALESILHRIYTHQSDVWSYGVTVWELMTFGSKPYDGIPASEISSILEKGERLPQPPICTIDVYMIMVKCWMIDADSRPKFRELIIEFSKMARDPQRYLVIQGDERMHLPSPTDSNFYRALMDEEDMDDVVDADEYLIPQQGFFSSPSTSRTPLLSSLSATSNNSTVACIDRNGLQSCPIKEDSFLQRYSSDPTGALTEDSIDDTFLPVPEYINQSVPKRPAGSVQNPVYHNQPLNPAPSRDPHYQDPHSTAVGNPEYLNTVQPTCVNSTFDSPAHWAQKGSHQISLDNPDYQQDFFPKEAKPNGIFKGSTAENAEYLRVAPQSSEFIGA
UniProt P00533, 25-1210 C797S/L858R limits assumed: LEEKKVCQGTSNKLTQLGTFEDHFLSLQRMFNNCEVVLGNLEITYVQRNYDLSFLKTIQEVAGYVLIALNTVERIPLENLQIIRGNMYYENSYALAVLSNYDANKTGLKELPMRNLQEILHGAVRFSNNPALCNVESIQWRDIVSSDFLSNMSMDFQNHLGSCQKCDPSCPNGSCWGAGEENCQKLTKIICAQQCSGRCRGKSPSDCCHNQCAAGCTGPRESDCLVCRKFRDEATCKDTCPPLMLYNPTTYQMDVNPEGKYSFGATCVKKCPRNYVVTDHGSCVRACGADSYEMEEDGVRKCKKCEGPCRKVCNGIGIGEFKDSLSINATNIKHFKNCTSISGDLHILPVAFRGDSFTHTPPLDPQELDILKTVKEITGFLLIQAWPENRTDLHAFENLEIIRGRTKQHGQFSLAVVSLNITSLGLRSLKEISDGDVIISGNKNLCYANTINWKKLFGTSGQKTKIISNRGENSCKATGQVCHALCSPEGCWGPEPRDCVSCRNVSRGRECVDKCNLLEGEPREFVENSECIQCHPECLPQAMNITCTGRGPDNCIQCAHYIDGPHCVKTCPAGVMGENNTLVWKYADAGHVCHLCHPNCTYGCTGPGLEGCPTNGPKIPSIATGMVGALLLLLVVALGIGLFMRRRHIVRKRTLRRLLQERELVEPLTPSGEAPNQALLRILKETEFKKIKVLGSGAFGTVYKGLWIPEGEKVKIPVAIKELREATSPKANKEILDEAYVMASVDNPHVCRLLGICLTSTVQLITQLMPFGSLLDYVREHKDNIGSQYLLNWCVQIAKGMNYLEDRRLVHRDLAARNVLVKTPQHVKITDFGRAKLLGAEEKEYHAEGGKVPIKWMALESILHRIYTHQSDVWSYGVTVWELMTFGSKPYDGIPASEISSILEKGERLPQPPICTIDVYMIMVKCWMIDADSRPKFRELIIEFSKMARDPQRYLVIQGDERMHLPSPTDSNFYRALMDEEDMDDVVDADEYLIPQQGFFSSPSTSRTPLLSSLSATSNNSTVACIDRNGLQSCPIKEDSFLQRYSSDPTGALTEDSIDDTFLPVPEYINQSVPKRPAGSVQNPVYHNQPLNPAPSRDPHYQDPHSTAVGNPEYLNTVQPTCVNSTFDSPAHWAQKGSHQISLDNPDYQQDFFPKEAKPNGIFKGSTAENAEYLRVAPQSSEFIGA
UniProt P00533, 25-1210 T790M/C797S/L858R limits assumed: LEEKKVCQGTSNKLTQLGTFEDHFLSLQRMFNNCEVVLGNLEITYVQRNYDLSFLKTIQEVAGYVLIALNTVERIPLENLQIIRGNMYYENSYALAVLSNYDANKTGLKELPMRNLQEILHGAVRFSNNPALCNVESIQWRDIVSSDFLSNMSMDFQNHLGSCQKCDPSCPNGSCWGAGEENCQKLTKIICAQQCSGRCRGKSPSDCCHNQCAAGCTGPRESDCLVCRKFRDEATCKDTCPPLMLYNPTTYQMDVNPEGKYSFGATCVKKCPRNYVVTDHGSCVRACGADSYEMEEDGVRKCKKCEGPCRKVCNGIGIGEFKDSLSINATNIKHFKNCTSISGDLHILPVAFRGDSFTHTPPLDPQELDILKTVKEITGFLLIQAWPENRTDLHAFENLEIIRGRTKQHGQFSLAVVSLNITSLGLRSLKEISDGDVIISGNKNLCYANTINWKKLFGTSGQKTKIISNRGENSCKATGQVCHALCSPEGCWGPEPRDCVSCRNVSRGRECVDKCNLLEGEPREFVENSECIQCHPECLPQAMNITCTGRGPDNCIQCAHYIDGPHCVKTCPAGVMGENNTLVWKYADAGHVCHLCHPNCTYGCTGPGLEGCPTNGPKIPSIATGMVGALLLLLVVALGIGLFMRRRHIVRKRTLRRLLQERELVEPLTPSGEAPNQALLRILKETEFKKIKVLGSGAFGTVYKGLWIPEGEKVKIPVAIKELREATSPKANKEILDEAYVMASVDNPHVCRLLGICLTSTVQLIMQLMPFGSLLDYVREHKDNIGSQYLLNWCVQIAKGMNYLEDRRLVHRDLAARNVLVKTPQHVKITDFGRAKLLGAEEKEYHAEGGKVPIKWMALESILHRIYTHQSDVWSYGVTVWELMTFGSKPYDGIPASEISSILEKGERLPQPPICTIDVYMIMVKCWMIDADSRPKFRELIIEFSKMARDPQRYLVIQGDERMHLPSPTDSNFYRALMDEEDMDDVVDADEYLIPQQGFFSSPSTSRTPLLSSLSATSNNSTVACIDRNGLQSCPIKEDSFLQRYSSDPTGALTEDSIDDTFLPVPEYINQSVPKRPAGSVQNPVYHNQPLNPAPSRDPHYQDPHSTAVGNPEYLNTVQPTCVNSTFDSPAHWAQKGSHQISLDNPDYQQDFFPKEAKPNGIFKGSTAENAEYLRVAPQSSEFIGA
UniProt P00533, with tags, fused parts or gaps DEL746-750/C797S limits assumed: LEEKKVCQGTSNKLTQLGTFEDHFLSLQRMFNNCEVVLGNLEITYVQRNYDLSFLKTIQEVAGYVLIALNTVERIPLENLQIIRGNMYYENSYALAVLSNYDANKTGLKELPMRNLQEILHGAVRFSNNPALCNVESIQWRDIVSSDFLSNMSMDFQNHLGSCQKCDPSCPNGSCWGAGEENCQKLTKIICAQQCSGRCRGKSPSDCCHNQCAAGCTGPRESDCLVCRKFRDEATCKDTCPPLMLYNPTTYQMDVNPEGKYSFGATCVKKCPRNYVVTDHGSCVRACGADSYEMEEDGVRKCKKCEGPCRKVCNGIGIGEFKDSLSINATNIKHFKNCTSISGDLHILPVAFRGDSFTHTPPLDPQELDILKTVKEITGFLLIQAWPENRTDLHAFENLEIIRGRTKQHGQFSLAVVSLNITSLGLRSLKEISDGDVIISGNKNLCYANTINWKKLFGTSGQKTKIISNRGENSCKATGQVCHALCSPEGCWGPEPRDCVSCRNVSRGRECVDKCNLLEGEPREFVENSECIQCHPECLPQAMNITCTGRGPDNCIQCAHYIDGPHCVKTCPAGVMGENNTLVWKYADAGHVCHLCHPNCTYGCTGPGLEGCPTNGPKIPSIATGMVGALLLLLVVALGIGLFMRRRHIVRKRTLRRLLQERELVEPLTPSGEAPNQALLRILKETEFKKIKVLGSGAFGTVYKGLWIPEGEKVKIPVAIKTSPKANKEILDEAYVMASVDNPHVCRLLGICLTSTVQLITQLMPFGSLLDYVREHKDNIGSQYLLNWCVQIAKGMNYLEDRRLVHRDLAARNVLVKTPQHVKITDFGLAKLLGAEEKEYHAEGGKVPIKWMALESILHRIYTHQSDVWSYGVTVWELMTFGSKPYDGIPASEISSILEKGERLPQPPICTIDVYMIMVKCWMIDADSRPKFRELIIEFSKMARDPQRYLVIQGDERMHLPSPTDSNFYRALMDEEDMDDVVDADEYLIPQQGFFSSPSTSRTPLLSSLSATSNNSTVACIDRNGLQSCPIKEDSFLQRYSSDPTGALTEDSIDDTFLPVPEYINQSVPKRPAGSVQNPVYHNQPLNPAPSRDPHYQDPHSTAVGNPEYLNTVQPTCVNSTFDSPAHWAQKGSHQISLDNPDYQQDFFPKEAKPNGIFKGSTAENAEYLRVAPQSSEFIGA
UniProt P00533, with tags, fused parts or gaps DEL746-750/T790M/C797S limits assumed: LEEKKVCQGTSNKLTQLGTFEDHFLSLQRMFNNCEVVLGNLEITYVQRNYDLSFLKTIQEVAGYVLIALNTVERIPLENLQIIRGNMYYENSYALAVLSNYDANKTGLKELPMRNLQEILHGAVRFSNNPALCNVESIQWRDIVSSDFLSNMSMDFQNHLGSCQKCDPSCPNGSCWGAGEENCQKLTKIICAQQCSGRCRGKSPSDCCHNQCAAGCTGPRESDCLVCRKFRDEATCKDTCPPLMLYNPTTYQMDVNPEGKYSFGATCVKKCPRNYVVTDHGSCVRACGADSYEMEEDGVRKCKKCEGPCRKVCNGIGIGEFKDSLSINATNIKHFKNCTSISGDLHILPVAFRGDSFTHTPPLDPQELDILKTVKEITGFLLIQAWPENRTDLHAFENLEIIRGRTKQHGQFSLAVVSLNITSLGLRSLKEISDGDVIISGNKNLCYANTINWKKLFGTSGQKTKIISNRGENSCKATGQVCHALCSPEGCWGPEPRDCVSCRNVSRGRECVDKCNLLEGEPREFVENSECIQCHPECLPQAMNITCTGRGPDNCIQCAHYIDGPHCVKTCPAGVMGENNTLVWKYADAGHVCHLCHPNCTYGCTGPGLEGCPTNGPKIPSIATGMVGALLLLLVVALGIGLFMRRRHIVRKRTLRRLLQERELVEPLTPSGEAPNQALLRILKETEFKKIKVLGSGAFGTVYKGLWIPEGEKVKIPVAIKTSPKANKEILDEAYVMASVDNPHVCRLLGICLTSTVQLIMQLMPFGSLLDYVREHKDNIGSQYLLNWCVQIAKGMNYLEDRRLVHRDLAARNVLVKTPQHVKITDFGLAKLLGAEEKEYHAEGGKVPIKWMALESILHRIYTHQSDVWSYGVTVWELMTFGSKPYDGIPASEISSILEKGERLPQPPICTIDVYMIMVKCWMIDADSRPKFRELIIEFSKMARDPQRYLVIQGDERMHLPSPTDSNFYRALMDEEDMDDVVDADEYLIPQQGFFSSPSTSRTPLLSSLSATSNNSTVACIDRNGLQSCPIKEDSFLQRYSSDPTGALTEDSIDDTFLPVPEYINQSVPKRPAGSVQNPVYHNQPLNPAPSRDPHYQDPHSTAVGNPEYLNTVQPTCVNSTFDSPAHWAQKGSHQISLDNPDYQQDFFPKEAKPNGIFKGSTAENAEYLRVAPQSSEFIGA

For assay [1], the target named is EGFR D19TMCS (del19/T790M/C797S) (Homo sapiens, UniProt P00533, C797S/DEL746-750/T790M). Kind of assay: Biochemical EGFR kinase assay (Lance Ultra TR-FRET), triple mutant del19/T790M/C797S. (In general: TR-FRET usually uses a lanthanide donor and a delayed reading to cut background.)
Assay [2] has as its target EGFR LRTMCS (L858R/T790M/C797S) (Homo sapiens, UniProt P00533, C797S/L858R/T790M). Kind of assay: Biochemical EGFR kinase assay (Lance Ultra TR-FRET), triple mutant L858R/T790M/C797S.
Another assay has as its target EGFR D19CS (del19/C797S) (Homo sapiens, UniProt P00533, C797S/DEL746-750). Put plainly: Biochemical EGFR kinase assay (Lance Ultra TR-FRET), double mutant del19/C797S.
The target in a further assay is EGFR LRCS (L858R/C797S) (Homo sapiens, UniProt P00533, C797S/L858R). Kind of assay: Biochemical EGFR kinase assay (Lance Ultra TR-FRET), double mutant L858R/C797S.
Another assay concerns the target EGFR WT (Homo sapiens, UniProt P00533). Put plainly: Biochemical EGFR kinase assay (Lance Ultra TR-FRET), wildtype.
[3] abbreviates: read-out: EGFR D19TMCS IC50, ATP 1 mM.
The mark [4] stands for this setting: read-out: EGFR D19TMCS IC50, ATP Km.
The mark [5] stands for this setting: read-out: EGFR LRTMCS IC50, ATP 1 mM.
Where [6] appears, read: read-out: EGFR LRTMCS IC50, ATP Km.
[7] abbreviates: read-out: EGFR D19CS IC50, ATP 1 mM.
[8] abbreviates: read-out: EGFR D19CS IC50, ATP Km.
Setting [9] is: read-out: EGFR LRCS IC50, ATP 1 mM.
The mark [10] stands for this setting: read-out: EGFR LRCS IC50, ATP Km.
Where [11] appears, read: read-out: EGFR WT IC50, ATP 1 mM.

One may read the IC50 as the concentration that inhibits the measured activity by half. In the case of `Cc1nn(C)c2c1-c1nccc(n1)Nc1cc(c(-c3ncc(CN4C[C@@H](CS(C)(=O)=O)[C@@H]4C)cc3F)cn1)N[C@@H](C)CCO2`, the IC50 in assay [1] (read-out: IC50, EGFR D19TMCS, Km, ATP at Km, EGFR del19/T790M/C797S) is under 10 nM; in assay [2] (read-out: IC50, EGFR LRTMCS, 1 mM, ATP 1 mM, EGFR L858R/T790M/C797S) it was under 10 nM; in assay [2] (read-out: IC50, EGFR LRTMCS, Km, ATP at Km, EGFR L858R/T790M/C797S), under 10 nM; at EGFR D19CS (del19/C797S) (read-out: IC50, EGFR-D19CS, 1 mM, ATP 1 mM, EGFR del19/C797S), 10 to 100 nM; on EGFR D19CS (del19/C797S) (read-out: IC50, EGFR-D19CS, Km, ATP at Km, EGFR del19/C797S), 10 to 100 nM; on EGFR LRCS (L858R/C797S) (read-out: IC50, EGFR-LRCS, 1 mM, ATP 1 mM, EGFR L858R/C797S) it was 10 to 100 nM. The IC50 was under 10 nM on EGFR LRCS (L858R/C797S) (read-out: IC50, EGFR-LRCS, Km, ATP at Km, EGFR L858R/C797S); over 1000 nM on EGFR WT (read-out: IC50, EGFR WT, 1 mM, ATP 1 mM, EGFR wildtype); 10 to 100 nM at EGFR WT (read-out: IC50, EGFR WT, Km, ATP at Km, EGFR wildtype).
As to `Cc1nn(C)c2c1-c1nccc(n1)Nc1cc(c(-c3ncc(CN4CC5(C4)CC5(F)F)cc3F)cn1)N[C@@H](C)CCO2`, the IC50 in assay [1] (setting [3]) was under 10 nM; in assay [1] (setting [4]), under 10 nM; in assay [2] (setting [5]) it was under 10 nM; in assay [2] (setting [6]) it was under 10 nM; at EGFR D19CS (del19/C797S) (setting [7]), 10 to 100 nM; at EGFR D19CS (del19/C797S) (setting [8]), under 10 nM. Besides, the concentration for half-maximal inhibition (IC50) on EGFR LRCS (L858R/C797S) (setting [9]) was 100 to 1000 nM; on EGFR LRCS (L858R/C797S) (setting [10]) it was under 10 nM; on EGFR WT (setting [11]) it was over 1000 nM; at EGFR WT (read-out: EGFR WT IC50, ATP Km), 10 to 100 nM.
For the compound `Cc1nn(C)c2c1-c1nccc(n1)Nc1cc(c(-c3ccc(OC4CCN(C)CC4)cn3)cn1)NCC[C@H](C)O2`, the IC50 (in assay [1] (setting [3]); in assay [1] (setting [4]); in assay [2] (setting [5]); in assay [2] (setting [6]); on EGFR D19CS (del19/C797S) (setting [7]); on EGFR D19CS (del19/C797S) (setting [8])) was under 10 nM each time. The IC50 on EGFR LRCS (L858R/C797S) (setting [9]) is under 10 nM; on EGFR LRCS (L858R/C797S) (setting [10]), under 10 nM; at EGFR WT (setting [11]), 100 to 1000 nM; on EGFR WT (read-out: EGFR WT IC50, ATP Km), under 10 nM.
On to `Cc1nn(C)c2c1-c1nccc(n1)Nc1cc(c(-c3ccc(OC4CCN(C)CC4)cn3)cn1)N[C@@H](C)CCO2`, for which the IC50 (in assay [1] (setting [3]); in assay [1] (setting [4]); in assay [2] (setting [5]); in assay [2] (setting [6]); at EGFR D19CS (del19/C797S) (setting [7]); on EGFR D19CS (del19/C797S) (setting [8])) was under 10 nM throughout. Moreover, the half-maximal inhibitory concentration (IC50) on EGFR LRCS (L858R/C797S) (setting [9]) was under 10 nM; on EGFR LRCS (L858R/C797S) (setting [10]), under 10 nM; at EGFR WT (setting [11]), 100 to 1000 nM; at EGFR WT (read-out: EGFR WT IC50, ATP Km), under 10 nM.
`COc1cccnc1-c1cnc2cc1N[C@@H](C)CCOc1c(cnn1C)-c1nccc(n1)N2`: the IC50 in assay [1] (setting [3]) is 10 to 100 nM; in assay [1] (setting [4]), under 10 nM; in assay [2] (setting [5]), 10 to 100 nM; in assay [2] (setting [6]), under 10 nM; at EGFR D19CS (del19/C797S) (setting [7]), over 1000 nM; on EGFR D19CS (del19/C797S) (setting [8]), 100 to 1000 nM. The half-inhibitory concentration (IC50) on EGFR LRCS (L858R/C797S) (setting [9]) is over 1000 nM; on EGFR LRCS (L858R/C797S) (setting [10]), 100 to 1000 nM; on EGFR WT (setting [11]), over 1000 nM; at EGFR WT (read-out: EGFR WT IC50, ATP Km), 100 to 1000 nM.
Consider `Cc1nn(C)c2c1-c1nccc(n1)Nc1cc(c(-c3ncc(CN4CC(O)C(C)(C)C4)cc3F)cn1)N[C@@H](C)CCO2` (some centres unmarked), for which the IC50 is under 10 nM in assay [1] (setting [3]); under 10 nM in assay [1] (setting [4]); under 10 nM in assay [2] (setting [5]); under 10 nM in assay [2] (setting [6]); 10 to 100 nM on EGFR D19CS (del19/C797S) (setting [7]); under 10 nM on EGFR D19CS (del19/C797S) (setting [8]). Also, the IC50 is 100 to 1000 nM on EGFR LRCS (L858R/C797S) (setting [9]); under 10 nM on EGFR LRCS (L858R/C797S) (setting [10]); over 1000 nM at EGFR WT (setting [11]); 10 to 100 nM at EGFR WT (read-out: EGFR WT IC50, ATP Km).
`C[C@H]1CCOc2c(cnn2C)-c2nccc(n2)Nc2cc(c(-c3cc(N4CC(CC(F)(F)F)C4)ccn3)cn2)N1`: the IC50 in assay [1] (setting [3]) was 10 to 100 nM; in assay [1] (setting [4]), under 10 nM; in assay [2] (setting [5]), 100 to 1000 nM; in assay [2] (setting [6]) it was under 10 nM; on EGFR D19CS (del19/C797S) (setting [7]), over 1000 nM; at EGFR D19CS (del19/C797S) (setting [8]), 100 to 1000 nM. The IC50 at EGFR LRCS (L858R/C797S) (setting [9]) is over 1000 nM; on EGFR LRCS (L858R/C797S) (setting [10]), 100 to 1000 nM; at EGFR WT (setting [11]), over 1000 nM; at EGFR WT (read-out: EGFR WT IC50, ATP Km) it was 100 to 1000 nM.
With `CC1CCCOc2c(cnn2C)-c2nccc(n2)Nc2cc(c(-c3ccn(C(F)F)n3)cn2)N1` (centres unmarked), the IC50 in assay [1] (setting [3]) is under 10 nM; in assay [1] (setting [4]), under 10 nM; in assay [2] (setting [5]), under 10 nM; in assay [2] (setting [6]) it was under 10 nM; on EGFR D19CS (del19/C797S) (setting [7]), 10 to 100 nM; at EGFR D19CS (del19/C797S) (setting [8]), under 10 nM. Also, the half-inhibitory concentration (IC50) is 100 to 1000 nM at EGFR LRCS (L858R/C797S) (setting [9]); 10 to 100 nM at EGFR LRCS (L858R/C797S) (setting [10]); over 1000 nM on EGFR WT (setting [11]); 10 to 100 nM at EGFR WT (read-out: EGFR WT IC50, ATP Km).
Take `Cc1nn(C)c2c1-c1nccc(n1)Nc1cc(c(-c3ccc(N4CCC(N(C)C)CC4)cn3)cn1)NCC[C@H](C)O2`: the 50% inhibitory concentration (IC50) (in assay [1] (setting [3]); in assay [1] (setting [4]); in assay [2] (setting [5]); in assay [2] (setting [6]); on EGFR D19CS (del19/C797S) (setting [7]); at EGFR D19CS (del19/C797S) (setting [8])) was under 10 nM each time. In addition, the half-maximal inhibitory concentration (IC50) was under 10 nM on EGFR LRCS (L858R/C797S) (setting [9]); under 10 nM at EGFR LRCS (L858R/C797S) (setting [10]); 100 to 1000 nM at EGFR WT (setting [11]); 10 to 100 nM on EGFR WT (read-out: EGFR WT IC50, ATP Km).

The record behind these values is US20260384450A1, “MACROCYCLIC AMINOPYRIDINE COMPOUNDS AS EGFR INHIBITORS” (published 2026).
